The test system of this assay is MV4-11. The experiment in a line: Antiproliferative activity against human MC4-11 cells assessed as reduction in cell viability after 5 days by Celltiter-Glo assay. The assay is classed as functional, cell-based. Particulars: time 5.0 day. In general terms: ATP-based viability assays read luminescence as a measure of living cells.

Regarding `CN(C)CCCn1ccc2cc(-c3nc(S(C)(=O)=O)nc4[nH]ccc34)ccc21`, the Activity entry was “Dose-Dependent Effect”.

The values are drawn from ChEMBL document CHEMBL4828734, “Discovery of High-Affinity Inhibitors of the BPTF Bromodomain” (J Med Chem, 2021).
